Columns and labels:
lysosomal GCase = lysosomal GCase (Homo sapiens (Human), UniProt P04062); test: In situ lysosomal GCase inhibition and washout assay in fibroblasts from a normal subject; assay type: cell-based; conditions: 16-24 hours with compound, PFBFDβGlu substrate
Method: The effect of the novel compounds of the present invention on lysosomal GCase activity was assayed in situ using fibroblasts established from a normal subject. Cells seeded in 48-well plates were incubated with the indicated concentrations of compound for 16-24 hours. For the dose-response assays, cells were incubated with the in situ substrate 5-(pentafluorobenzoylamino)fluorescein di-β-D-glucopyranoside (PFBFDβGlu) for 1 hour and subsequently lysed to determine the extent of substrate hydrolysis in the presence of compound. […] Inhibition was determined as the ratio of activity in the presence of compound to that in the absence of compound. […] Cells were washed extensively and incubated in drug-free medium to allow net compound efflux from cells. Cells were then tested for lysosomal GCase activity at 2 hour intervals over a total period of 8 hours following compound removal. The increase in activity over time was fitted with a single exponential function to determine the compound's washout time.

Protein sequences, listed by entry. Tags and fused reporters are not part of them. Residues count along the entry.
UniProt P04062, 40-536: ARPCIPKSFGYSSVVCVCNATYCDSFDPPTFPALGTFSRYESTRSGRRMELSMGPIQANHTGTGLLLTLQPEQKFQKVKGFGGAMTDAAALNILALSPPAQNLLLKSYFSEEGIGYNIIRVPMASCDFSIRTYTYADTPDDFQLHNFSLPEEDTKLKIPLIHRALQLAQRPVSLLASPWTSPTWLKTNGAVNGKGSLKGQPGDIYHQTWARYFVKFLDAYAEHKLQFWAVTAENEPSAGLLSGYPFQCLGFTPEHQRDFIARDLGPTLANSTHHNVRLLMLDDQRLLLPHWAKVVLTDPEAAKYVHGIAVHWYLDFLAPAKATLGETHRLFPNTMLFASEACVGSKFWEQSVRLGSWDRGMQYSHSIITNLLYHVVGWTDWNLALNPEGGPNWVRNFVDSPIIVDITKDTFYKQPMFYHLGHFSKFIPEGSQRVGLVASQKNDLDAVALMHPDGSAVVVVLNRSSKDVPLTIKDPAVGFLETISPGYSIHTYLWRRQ

GCase = GCase (Homo sapiens (Human), UniProt P04062); test: GCase activity enhancement (EC50, Emax) of Table 2B; assay type: cell-based

## Cl.O[C@H]1[C@H](O)CNC[C@@H]1C(F)F [Cmpd 6, (3R,4R,5S)-5-(Difluoromethyl)piperidine 3,4-diol Hydrochloride]
Lysosomal GCase
  IC50: 408 ± 46 nM
GCase
  EC50: 18 ± 8 nM

Reference: patent US8604206B2, “Compositions for preventing and/or treating degenerative disorders of the central nervous system” (Amicus Therapeutics, Inc., priority 2009, dated 2013)
